# Apparent affinities of Ab-14 variants for a coronavirus HR2 peptide

Reference: Engelhart et al. 2022, doi:10.1038/s41597-022-01779-4. File: FLAb, binding data.

The target is the same throughout: PDVDLGDISGINAS, from the HR2 region of SARS-CoV-2 spike.

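AAYL49 was designed without a model: most single CDR substitutions and a random sample of double and triple ones. The assay is AlphaSeq: two haploid yeast populations carry antibody and antigen on their surface. The frequency of each diploid, read from paired DNA barcodes, reflects how well the two displayed proteins bind. Each replicate has its own calibration line, from reference interactions of the BCL2 family. There are three technical replicates.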

Ab-14 is the parent antibody, in scFv form: VH, then a (GGGGS)3 linker, then VL. The light chain is unchanged in all variants.
VH: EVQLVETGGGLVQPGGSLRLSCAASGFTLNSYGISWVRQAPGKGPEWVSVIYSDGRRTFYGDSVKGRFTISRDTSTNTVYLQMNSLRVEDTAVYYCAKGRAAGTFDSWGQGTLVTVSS
VL: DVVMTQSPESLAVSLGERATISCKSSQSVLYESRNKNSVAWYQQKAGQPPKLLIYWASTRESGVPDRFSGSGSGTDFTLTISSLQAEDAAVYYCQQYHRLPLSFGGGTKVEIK

The parent's heavy chain CDRs are GFTLNSYGIS, VIYSDGRRTFYGDSVK, GRAAGTFDS; each variant's own CDRs replace them letter for letter. Values are log10 of the apparent Kd in nM; lower means stronger binding. Averages over replicates are reported, and they cover detected replicates only. A pair that was not seen in that replicate is written "nd"; this usually means weak binding, but a binder can also be missed. For reference, the parent read 0.65 as the reference entry and 4.11 (one replicate of three) as a member of this library. As a blank, each scFv also met three strains without target: over library AAYL49, 15% of these pairings were detected, typically at 4.06 and seldom below 2.83. The control count says in how many pairings with the empty strains this scFv gave a signal, with their mean in brackets.

CDR-H1 | CDR-H2 | CDR-H3 | log10 Kd, replicates | mean log10 Kd (nM) | control signals
NFTLNSYGIS | VIYCDGRRTFYGDSVK | GSAAGTFDS | nd / nd / nd | nd | 0 of 9
GFTLNSYGIS | VWYSIGRRTFVGDSVK | GRAAGTFDS | nd / nd / nd | nd | 0 of 9
GFTANSYGTS | VIYMDGRRTFYGDSVK | GRAAGTFDS | 5.89 / 4.78 / nd | 5.34 | 4 of 9 (3.88)
GFTLNSYGIS | VIVSDGRRTSYGDSWK | GRAAGTFDS | nd / nd / nd | nd | 0 of 9
GSTLNSYGIS | VIYSDGRRTFYGDSYK | GRSAGTFDS | 4.65 / nd / nd | 4.65 | 3 of 9 (4.02)
GFTLNSYGIS | VIYSDGRRTFYGNSVK | GRAAGTQDN | nd / nd / nd | nd | 2 of 9 (3.92)
GFTVNSYGIS | VIYRDGTRTFYGDSVK | GRAAGTFDS | nd / nd / nd | nd | 0 of 9
GFTLNSYGIS | VIYSDGRRTFYGDSVK | GRAAETSYS | 3.23 / nd / nd | 3.23 | 1 of 9 (2.13)
GFTLNSYGRS | VIYTDGRRTFYGDSVK | GRAAGTFDS | 3.77 / nd / nd | 3.77 | 2 of 9 (4.32)
GFTLNSYGIS | VIYSDGHRTFYGISVK | GRAAGTFDS | nd / nd / nd | nd | 4 of 9 (3.56)
GFTLNSYGSS | VIYSDGRRTWYGDVVK | GRAAGTFDS | nd / nd / nd | nd | 2 of 9 (4.70)
GFTLNSYGIS | VIYSDGRRKNYMDSVK | GRAAGTFDS | 2.56 / 1.98 / 3.05 | 2.53 | 0 of 9
GFTLNSYGIS | VIYSDGRRTFYCDSVK | GNCAGTFDS | nd / nd / nd | nd | 0 of 9
GFTLNSYGIS | VIYSDPRQTFWGDSVK | GRAAGTFDS | 6.07 / nd / 6.18 | 6.12 | 2 of 9 (4.67)
GFTLNSYGIS | VIYSDGRRTFYGDNVK | GRAAGPFWS | nd / 5.05 / 3.13 | 4.09 | 1 of 9 (4.96)
GFTLNSYGIS | PIYSDGRPTFYGDSVK | GRAAGTFFS | nd / nd / nd | nd | 0 of 9
GQFLNSYGIS | VIYSDGRRTFYGDSVA | GRAAGTFDS | 3.37 / 3.30 / 3.69 | 3.46 | 2 of 9 (3.82)
GDTLNSYGIS | VIYSDGRRTFYGDSQK | GCAAGTFDS | nd / nd / nd | nd | 0 of 9
GFTLNSYGWS | VVYSDGRRTHYGDSVK | GRAAGTFDS | nd / 3.25 / nd | 3.25 | 4 of 9 (4.00)
GFTLNSYGIF | EIYSDGRRPFYGDSVK | GRAAGTFDS | nd / nd / nd | nd | 0 of 9
MFTLNSYGIS | VIYSDGRRTFYGDSVK | VRAAGTRDS | 1.75 / 1.60 / 1.95 | 1.76 | 0 of 9
GFTLNSYGIS | VIYSDGRRCFYGDLVK | GRQAGTFDS | 3.00 / 3.19 / nd | 3.09 | 2 of 9 (4.01)
GFYLNDYGMS | VIYSDGRRTFYGDSVK | GRAAGTFDS | 1.99 / 1.44 / 1.77 | 1.73 | 4 of 9 (3.81)
GFTLNSYGIS | VIYSDGRRTFYGDTVK | GRAAGTIDP | 3.88 / nd / 3.93 | 3.90 | 2 of 9 (3.64)
GFTTNSYGIS | VIYSDGRWTFYGDSVL | GRAAGTFDS | nd / 3.73 / nd | 3.73 | 0 of 9
GFTLNSYRIS | VIYSDGRRTFYQDSTK | GRAAGTFDS | 4.37 / 4.16 / nd | 4.26 | 3 of 9 (3.89)
GFTLNSYGIS | VIYSDGRREIYGDSVK | GRAAGTHDS | 3.63 / nd / 5.82 | 4.73 | 3 of 9 (4.43)
GFTLNSYGSS | VIYSDGRRTRYVDSVK | GRAAGTFDS | nd / nd / nd | nd | 2 of 9 (3.44)
GFTLNSKGIS | VIYSDGRRTFYGDSVK | GRAAGNFDS | nd / 1.97 / nd | 1.97 | 1 of 9 (3.17)
GFPLNSYGIS | VIYFDGRRTFYGDEVK | GRAAGTFDS | 1.76 / 1.60 / 1.90 | 1.75 | 3 of 9 (4.50)
GFTLNSYNIP | VIYSDGRRTFYGDSVK | GSAAGTFDS | 6.14 / nd / nd | 6.14 | 4 of 9 (4.22)
GFTLNSYGIS | GIYSDGRRTFYGDSVK | GFAAGTFDS | nd / nd / 3.56 | 3.56 | 1 of 9 (4.01)
GFTLTSYGIS | AIYSDGRRTFYGDSVK | GRAAGTFDS | 3.99 / nd / nd | 3.99 | 2 of 9 (4.23)
GFTFNSYGIS | VFYSDGRRTFYGDSVK | GNAAGTFDS | nd / nd / nd | nd | 2 of 9 (4.04)
GFTLNSYGKS | VDYSDGRRTFYGDSVK | GEAAGTFDS | nd / nd / nd | nd | 2 of 9 (3.69)
GFTLNSYGIS | VIQMDGRRTFYGDSVK | GRAAGAFDS | nd / nd / nd | nd | 0 of 9
GFTLNSYGIS | VRYPDGRRDFYGDSVK | GRAAGTFDS | nd / 5.05 / 4.17 | 4.61 | 1 of 9 (3.42)
GFTPNSYGKS | VIYSDGRRTFYGDSVK | GRAAGTFFS | nd / nd / nd | nd | 0 of 9
GFTLNSYGFS | VIYSDGRPTFYGDSVK | GRAATTFDS | nd / 4.17 / nd | 4.17 | 0 of 9
GFTLNSYGIS | VIYSDGLRTNYGDSVK | GRIAGTFDS | 1.06 / 1.21 / 1.19 | 1.15 | 2 of 9 (4.48)
GFTLNSYGIS | VIHSDGVRTIYGDSVK | GRAAGTFDS | nd / nd / nd | nd | 0 of 9
GFTLNSYGIS | VIYSDGRRAFYGDKVK | GFAAGTFDS | nd / 4.29 / nd | 4.29 | 0 of 9
GFTLASYGIS | VIYSDKRRTFYGDSFK | GRAAGTFDS | nd / 2.62 / nd | 2.62 | 0 of 9
GFCLNSYGIS | VIYSDGKRTFYGDMVK | GRAAGTFDS | nd / nd / nd | nd | 1 of 9 (3.12)
GFTLNSYGIS | VIYLDGRRTFYGDSVK | GRAAGTFYS | 3.97 / 3.06 / nd | 3.52 | 4 of 9 (4.24)
GFTLNSYGRS | VIYSDGRRFFYGDSVK | GRAAGTQDS | nd / nd / nd | nd | 1 of 9 (3.99)
GFTLNRYGIS | VIYSDGRRTFYGDTVK | GRAAGTFLS | 4.13 / nd / 3.73 | 3.93 | 4 of 9 (3.25)
GFTLNSAGIS | VISSDGRRTFQGDSVK | GRAAGTFDS | nd / nd / nd | nd | 0 of 9
GFTLNSYGIS | VIYSDGFRCFTGDSVK | GRAAGTFDS | nd / nd / nd | nd | 0 of 9
GFTLNSYGIS | VIYNDGRRQFYGLSVK | GRAAGTFDS | nd / nd / 5.20 | 5.20 | 2 of 9 (3.86)

Repeated from above, the 6 best binders with a signal in all replicates:

CDR-H1 | CDR-H2 | CDR-H3 | log10 Kd, replicates | mean log10 Kd (nM) | control signals
GFTLNSYGIS | VIYSDGLRTNYGDSVK | GRIAGTFDS | 1.06 / 1.21 / 1.19 | 1.15 | 2 of 9 (4.48)
GFYLNDYGMS | VIYSDGRRTFYGDSVK | GRAAGTFDS | 1.99 / 1.44 / 1.77 | 1.73 | 4 of 9 (3.81)
GFPLNSYGIS | VIYFDGRRTFYGDEVK | GRAAGTFDS | 1.76 / 1.60 / 1.90 | 1.75 | 3 of 9 (4.50)
MFTLNSYGIS | VIYSDGRRTFYGDSVK | VRAAGTRDS | 1.75 / 1.60 / 1.95 | 1.76 | 0 of 9
GFTLNSYGIS | VIYSDGRRKNYMDSVK | GRAAGTFDS | 2.56 / 1.98 / 3.05 | 2.53 | 0 of 9
GQFLNSYGIS | VIYSDGRRTFYGDSVA | GRAAGTFDS | 3.37 / 3.30 / 3.69 | 3.46 | 2 of 9 (3.82)